Data published in ChEMBL document CHEMBL1144548, “Dioxane and oxathiane nuclei: suitable substructures for muscarinic agonists” (Bioorg Med Chem, 2007).

Amino acid sequences for entries named in this document (tags omitted).
UniProt P20309, whole entry: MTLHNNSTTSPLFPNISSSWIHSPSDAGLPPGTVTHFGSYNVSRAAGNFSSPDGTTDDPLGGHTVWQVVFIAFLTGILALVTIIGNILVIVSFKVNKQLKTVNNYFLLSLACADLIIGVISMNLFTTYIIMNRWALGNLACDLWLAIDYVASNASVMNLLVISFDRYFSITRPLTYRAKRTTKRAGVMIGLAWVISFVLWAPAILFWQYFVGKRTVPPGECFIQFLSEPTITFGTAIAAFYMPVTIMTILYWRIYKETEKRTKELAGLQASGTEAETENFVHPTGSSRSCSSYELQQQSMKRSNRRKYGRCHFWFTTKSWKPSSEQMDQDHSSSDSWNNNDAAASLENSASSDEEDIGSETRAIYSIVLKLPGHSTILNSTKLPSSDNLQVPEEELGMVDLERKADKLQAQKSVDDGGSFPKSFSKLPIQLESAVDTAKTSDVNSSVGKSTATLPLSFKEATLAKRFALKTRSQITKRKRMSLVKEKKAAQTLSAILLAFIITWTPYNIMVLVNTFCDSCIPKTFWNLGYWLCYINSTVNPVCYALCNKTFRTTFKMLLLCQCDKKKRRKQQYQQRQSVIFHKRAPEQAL

Target: Muscarinic acetylcholine receptor M3 (Homo sapiens, UniProt P20309)
Assay type: functional, cell-based, CHO

Compound | EC50 [nM]
C[C@H]1COC[C@@H](C[N+](C)(C)C)O1 | 407
CC1COCC(C[N+](C)(C)C)O1 (racemic; form 1) | 275
CC1COCC(C[N+](C)(C)C)O1 (racemic; form 2) | 56200
